Data taken from patent publication US6645682B2, “Thinner for rinsing photoresist and method of treating photoresist layer” (dated 2003).

Test: Ignition and explosive tests
Conditions: for Vapor pressure: temperature 20 ° C.

Question: With `CCCCOC(C)=O` as the compound, how does the Flash point read?
Answer: 22 °C

Question: And the Ignition point?
Answer: 425 °C

Question: What about the Vapor pressure of the same compound?
Answer: 7.8/20 mmHg

Question: Which Flash point does the source give for `CC(=O)CC(C)C` here?
Answer: 18 °C

Question: And the Ignition point?
Answer: 449 °C

Question: And the Vapor pressure?
Answer: 16/20 mmHg
